Test results published in PMC8072975 (Pharmaceutics, 2021).

Columns and labels:
[1] = human plasma, peak area of A2-2, mean ± SD, n = 3; for Stability 4 °C, 36 h (%): short-term, relative recovery vs freshly prepared sample, HPLC-UV 220 nm; for Stability Freeze-Thaw (%): three freeze-thaw cycles at −70 °C, HPLC-UV
[2] = in vivo; cited from earlier work
[3] = in vivo; cited from earlier work; remark: listed apart in the source
[4] = human, in vivo, iv, 6 mg/kg

## teicoplanin
[1]; teicoplanin high conc. 500.0 mg/L (mixture)
  Stability 4 °C, 36 h (%): 103.3 ± 2.29%
[1]; teicoplanin low conc. 7.81 mg/L (mixture)
  Stability 4 °C, 36 h (%): 106.1 ± 13.1%
[1]; teicoplanin high conc. 500.0 mg/L
  Stability Freeze-Thaw (%): 112.4 ± 5.12%
[1]; teicoplanin low conc. 7.81 mg/L
  Stability Freeze-Thaw (%): 111.4 ± 6.26%
[2]
  Steady-state trough concentrations (Css, min) in human plasma: ≥ 10.0 µg/mL
[3]
  Half-life: approximately 100 h
[4]
  Highest plasma concentration, found at 0.5 h: 47.3 to 85.4 mg/L
[4]; 24 h
  Plasma concentration after the loading dose (at 24 h): approximately 12.0 mg/L

Read-outs that look alike come from different tables or passages of the source.
